Assay results published in patent publication US11464773B2, “Nutlin-3a for treatment of proliferative vitreoretinopathy” (The Schepens Eye Research Institute, Inc., priority 2012, dated 2022).

System: F cells
Assay: Collagen contraction assay, RV-induced, F cells
Type: cell-based, mouse
Conditions: Imatinib 10 μM, day 3
Description: FIGS. 10A-10B include a series of bar graphs showing that inhibiting PDGFRα kinase activity blocked RV-induced collagen contraction. The indicated RCFs (50,000 cells/ml) (FIG. 10A) or F cells (1 million cells/ml) (FIG. 10B) were subjected to a collagen contraction assays as described below. […] After the collagen was solidified (90 minutes), DMEM or RV (diluted 1:3 in DMEM) supplemented with Imatinib (10 μM) or its vehicle was added, and replenished every 24 hours; the experiments were terminated on day 3. The panels below the bar graphs show photographs of representative gels; the data presented are representative of 3 independent experiments. The data were subjected to a paired t test; “*” denoted a statistically significant difference.
RPEM cells are RPE cells derived from a human epiretinal membrane, as previously described (Wong C A et al., 2002 Can J Ophthalmol, 37:211-220). Primary rabbit conjunctival fibroblasts (RCFs) were obtained and cultured as described previously (Ikuno Y et al., 2002 Invest Ophthalmol Vis Sci, 43:2406-2411). […]
Cells were trypsinized, washed and resuspended in 1.5 mg/ml of neutralized collagen I (INAMED, Fremont, Calif.) (pH 7.2) at a density of 1×10^6 cells/ml for RPEM or 5×10^4 cells/ml for RCFs. […] The media were replaced every day, and the gel diameter was measured on day 3. The gel area was calculated using the formula πr2, where r is the radius of the gel.

SMILES: Cc1ccc(NC(=O)c2ccc(CN3CCN(C)CC3)cc2)cc1Nc1nccc(-c2cccnc2)n1 [Imatinib]
- RV-induced contraction in F cells (no PDGFR): unaffected
